Experiment [1] concerns the target Neuronal acetylcholine receptor subunit alpha-7 (Homo sapiens, UniProt P36544). Description: Agonist activity at alpha7 nAChR (unknown origin) assessed as fold change in maximum response (Imax) relative to acetylcholine. To be noted: filed as agonist.
In experiment [2] the target is Neuronal acetylcholine receptor subunit alpha-9 (Homo sapiens, UniProt Q9UGM1). Description: Agonist activity at alpha9 nAChR (unknown origin) assessed as fold change in maximum response (Imax) relative to acetylcholine. To be noted: filed as agonist.

The chains behind the UniProt entries cited, without tags or fusion partners. Where a name states a change or a piece, a line headed by the entry shows the natural chain unless it says otherwise.
UniProt P36544, whole entry: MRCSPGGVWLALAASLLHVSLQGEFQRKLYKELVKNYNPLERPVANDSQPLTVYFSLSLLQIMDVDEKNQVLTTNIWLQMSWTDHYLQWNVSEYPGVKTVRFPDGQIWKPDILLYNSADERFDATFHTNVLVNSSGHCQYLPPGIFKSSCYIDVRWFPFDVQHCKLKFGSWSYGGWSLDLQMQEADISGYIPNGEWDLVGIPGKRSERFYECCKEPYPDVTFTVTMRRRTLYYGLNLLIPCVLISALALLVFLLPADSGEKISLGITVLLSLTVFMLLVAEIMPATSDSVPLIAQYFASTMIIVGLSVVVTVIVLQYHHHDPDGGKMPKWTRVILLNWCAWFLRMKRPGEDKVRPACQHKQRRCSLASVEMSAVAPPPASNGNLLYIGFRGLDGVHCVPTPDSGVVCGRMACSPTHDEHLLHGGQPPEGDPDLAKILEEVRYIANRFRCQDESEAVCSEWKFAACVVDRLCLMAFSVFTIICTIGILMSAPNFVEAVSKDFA
UniProt Q9UGM1: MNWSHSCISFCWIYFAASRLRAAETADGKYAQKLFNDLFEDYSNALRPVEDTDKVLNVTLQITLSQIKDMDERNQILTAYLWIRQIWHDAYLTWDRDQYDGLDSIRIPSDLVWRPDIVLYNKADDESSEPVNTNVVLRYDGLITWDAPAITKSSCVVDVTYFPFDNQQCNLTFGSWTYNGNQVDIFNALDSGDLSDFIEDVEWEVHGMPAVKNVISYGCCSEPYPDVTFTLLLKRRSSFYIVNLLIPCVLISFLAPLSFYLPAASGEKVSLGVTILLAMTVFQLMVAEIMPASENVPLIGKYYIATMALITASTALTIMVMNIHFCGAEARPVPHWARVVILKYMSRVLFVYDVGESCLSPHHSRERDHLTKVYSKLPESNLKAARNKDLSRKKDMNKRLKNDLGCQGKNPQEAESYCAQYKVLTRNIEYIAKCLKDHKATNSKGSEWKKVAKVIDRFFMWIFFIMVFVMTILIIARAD

`CC[N+]1(CC)CCN(c2ccc(C(=O)Nc3cccc(C)n3)cc2)CC1.[I-]`: the fold change (FC) in experiment [1] was 0.42; in experiment [2] it was 1.06.
